Test results: patent EP1323421A1 (priority 2001, dated 2003)

Test system: wake naive rats
Experiment: cystometry with wake naive rats
Conditions: 0.01 mg/kg iv (n=6)

CO[C@]12CC[C@@]3(C[C@@H]1[C@](C)(O)C(C)(C)C)[C@H]1Cc4ccc(O)c5c4[C@@]3(CCN1CC1CC1)[C@H]2O5 [buprenorphine, 21-cyclopropyl-7.varies.-[(S)-1-hydroxy-1,2,2-trimethylpropyl]-6,14-endo-e thano-6,7,8,14-tetrahydrooripavine]
BC bladder capacity, change compared to the pre-basis: +3.6%
ICI inter-contraction interval, change compared to the pre-basis: +10.9%
TP threshold pressure, change compared to the pre-basis: +69.9% **

Marks after values point to notes of the source that are not given here.
